Measured values as given in patent EP4837574A1, “USE OF DNJ OR DERIVATIVE THEREOF IN PREPARING ANTI-SENESCENCE DRUG” (dated 2026).

Experiments:
[1] = test system: human umbilical vein endothelial cells (Huvec cells); test: SA-β-Gal staining, H2O2-induced senescence, pre-administration (Example 1); conditions: 30 µM, pre-administration 24 hours, then 200 µM H2O2 24 hours, FIG. 9; for protective effects on senescence compared with NMN: NMN 30 µM as positive control; for increase in the number of senescent cells (SA-β-Gal staining-positive cells): compared with the H2O2 group
Procedure: (§1) Culture conditions for human umbilical vein endothelial cells (Huvec cells) are as follows: The Huvec cells were cultured in an ECM culture medium (SclenCell) and passaged and seeded when cultured to a density of 70% to 80% in a culture dish. The cells were washed 1 time with PBS, 0.25% trypsin (Gibco) was added for digestion for 2-3 minutes, and then an ECM culture medium was added to terminate the digestion. The cells were pipetted to be detached, collected into a 15 mL centrifuge tube, and centrifuged at 1,000 rpm for 5 minutes. The supernatant was discarded, a new ECM culture medium was added, and the cells were pipetted uniformly, seeded into a 12-well or 24-well plate (at a density of 70% to 80%), and cultured in a 5% CO2 incubator at 37°C. After cell adherence, the next operation was performed.
Experimental operation and grouping are as follows: Experimental grouping: A control group (Control), a modeling group (H2O2), a DNJ drug group (H2O2 + DNJ, H2O2 + DNJ-1, H2O2 + DNJ-3a, H2O2 + DNJ-3b, H2O2 + DNJ-5a), and a positive control drug group (H2O2 + NMN) were used.
(§2) Working concentrations of each drug and modeling agent: The concentrations of DNJ, DNJ-1, DNJ-3a, DNJ-3b, DNJ-5a, and NMN were all 30 µM; and the concentration of the modeling agent, H2O2, was 200 µM.
Experimental operation: After the supernatant was discarded, the cells were washed 3 times with PBS, drug solutions formulated in advance with a culture medium were added, and the blank group and the modeling group were replaced with a blank culture medium without drugs. After culturing for 24 hours, the supernatant was discarded, the cells were washed 3 times with PBS, a blank culture medium was added in the blank group, and a culture medium containing 200 µM H2O2 was added in the modeling group and the administration group. After treatment for 24 hours, the cells were subjected to SA-β-Gal staining operation using a cellular senescence β-galactosidase staining kit (Beyotime, C0602).
(§3) The workflow for SA-β-Gal staining of the cells is as follows: For the cells cultured in a 6-well plate, a cell culture solution was sucked away, the cells were washed 1 time with PBS, and 1 mL of an SA-β-Gal staining fixative was added for fixation at room temperature for 15 minutes. For other types of culture plates, the dosages of the fixative and subsequent solutions were used in operation with reference to this ratio. The cell fixative was sucked away, and the cells were washed 3 times with PBS, for 3 minutes each time. PBS was sucked away, and 1 mL of a staining working solution was added to each well. A method for formulating the staining working solution is as follows: A β-galactosidase staining solution A (10 µL), a β-galactosidase staining solution B (10 µL), a β-galactosidase staining solution C (930 µL), and an X-Gal solution (50 µL) were used. The cells were incubated overnight at 37°C, and the 6-well plate was sealed with a parafilm or a plastic wrap to prevent evaporation. Photographing was performed for record using a 20× objective under a microfluidic live cell real-time analysis system (Thermo), cell counting was performed using ImageJ software (National Institutes of Health, v 1.8.0), and ANOVA data analysis of multiple groups (mean ± SD) was performed using Graphpad Prism software (GraphPad Software, v 9.0.0).
Compared with normal cells, senescent cells have the characteristic of high expression of SA-β-Gal. In the cellular senescence β-galactosidase staining kit using X-Gal as a substrate, a deep blue product is generated under the catalysis of senescence-specific β-galactosidase, thereby determining whether the cells are senescent.

[2] = test system: human umbilical vein endothelial cells (Huvec cells); test: SA-β-Gal staining, H2O2-induced senescence, simultaneous administration (Example 2); conditions: 30 µM, simultaneous treatment with 200 µM H2O2 for 24 hours; FIG. 10
Procedure: as §1, §2, §3
(§4) A basic method refers to Example 1, with differences in the administration method as follows: while inducing by H2O2 and constructing a human umbilical vein endothelial cell senescence model, treatment with DNJ or its derivatives was performed separately, and the anti-aging activity of drugs was detected.

[3] = test system: human umbilical vein endothelial cells (Huvec cells); test: SA-β-Gal staining, H2O2-induced senescence, post-modeling administration (Example 3); conditions: 30 µM, added after stimulation with H2O2 for 24 hours; FIG. 11
Procedure: as §1, §2, §3
as §4, with “after” for “while”

[4] = test system: human umbilical vein endothelial cells (Huvec cells); test: SA-β-Gal staining, D-galactose-induced senescence, pre-administration (Example 4); conditions: 30 µM, pre-administration 24 hours, then 40 g/L D-gal 24 hours; FIG. 12
Procedure: as §1, §2, §3
The anti-aging activity of drugs was detected in a stress-induced senescence model of human umbilical vein endothelial cells induced by D-galactose. A basic method refers to Example 1, with differences in the modeling method as follows: a cell senescence model was constructed by stimulation with 40 g/L D-gal for 24 hours.

[5] = test system: rat cardiomyocytes (H9c2 cells); test: SA-β-Gal staining, H2O2-induced senescence, pre-administration (Example 6); conditions: pre-administration 24 hours, then 400 µM H2O2 48 hours; FIG. 14
Procedure: as §3
Culture conditions for rat cardiomyocytes (H9c2 cells) are as follows: The cells were cultured in a high-glucose DMEM culture medium containing 10% FBS and passaged and seeded when cultured to a density of 70% to 80% in a culture dish. The cells were washed 1 time with PBS, 0.25% trypsin was added for digestion for 2-3 minutes, and a high-glucose DMEM culture medium containing 10% FBS was added to terminate the digestion. The cells were pipetted to be detached, collected into a 15 mL centrifuge tube, and centrifuged at 1,000 rpm for 5 minutes. The supernatant was discarded, a new ECM culture medium was added, and the cells were pipetted uniformly, seeded into a 12-well or 24-well plate (at a density of 70% to 80%), and cultured in a 5% CO2 incubator at 37°C. After cell adherence, the next operation was performed.
The anti-aging activity of drugs was detected in the H9c2 cells. In the H9c2 cells, stimulation was performed with 400 µM H2O2 for 48 hours for modeling. […] The pharmacological activity of DNJ or its derivatives DNJ-1, DNJ-3a, DNJ-3b, and DNJ-5a was detected in the method of pre-administration treatment for 24 hours.

[6] = test system: human iPSC-derived mesenchymal stem cells (iPSC-MSC); test: SA-β-Gal staining, H2O2-induced senescence, pre-administration (Example 7); conditions: pre-administration 24 hours; 40 µM H2O2 2 hours, then new medium 24 hours; FIG. 15
Procedure: as §3
Culture conditions for human iPSC-derived mesenchymal stem cells (iPSC-MSC) are as follows: The cells were cultured in a MesenCult-ACF Plus Medium (STEMCELL, Cat#05446) and passaged and seeded when cultured to a density of 70% to 80% in a culture dish. After the cells were washed 1 time with DPBS (Gibco), an ACF Enzymatic Dissociation Solution (STEMCELL, Cat#05426) was added for digestion for 2-3 minutes, and then an ACF Enzyme Inhibition Solution (STEMCELL, Cat#05426) was added to terminate the digestion. The cells were pipetted to be detached, collected into a 15 mL centrifuge tube, and centrifuged at 300 G for 8 minutes. The supernatant was discarded, a new MesenCult-ACF Plus Medium was added, and the cells were pipetted uniformly, seeded into a 12-well or 24-well plate (at a density of 70% to 80%), and cultured in a 5% CO2 incubator at 37°C. After cell adherence, the next operation was performed.
The anti-aging activity of drugs was detected in iPSC-MSC. In iPSC-MSC, stimulation was performed with 40 µM H2O2 for 2 hours, followed by replacement with a new culture medium for continued culture for 24 hours to construct a cell senescence model. Compared with a control group, a significant increase in the number of SA-β-Gal staining-positive cells in an H2O2 group confirms successful establishment of an iPSC-MSC senescence model. The pharmacological activity of DNJ or its derivatives was detected in the method of pre-administration treatment for 24 hours.

Structure (SMILES): OC[C@@H]1[C@@H](O)[C@H](O)[C@@H](O)CN1CCc1ccccc1
- protective effects on senescence compared with NMN [1]: significantly better than that of NMN
- increase in the number of senescent cells (SA-β-Gal staining-positive cells) [1]: significantly inhibited
- production of senescent cells induced by H2O2 (number of SA-β-Gal staining-positive cells) [2]: significantly reduce
- expression of SA-β-Gal and cell senescence [3]: significantly reduce
- number of SA-β-Gal staining-positive cells [4]: significantly reduced
- number of SA-β-Gal staining-positive H9c2 cells [5]: reduce
- number of SA-β-Gal staining-positive iPSC-MSC cells [6]: reduce

Structure (SMILES): CC(C)(C)C(=O)OC[C@H]1NC[C@H](O)[C@@H](O)[C@@H]1O
- protective effects on senescence compared with NMN [1]: significantly better than that of NMN
- increase in the number of senescent cells (SA-β-Gal staining-positive cells) [1]: significantly inhibited
- production of senescent cells induced by H2O2 (number of SA-β-Gal staining-positive cells) [2]: significantly reduce
- expression of SA-β-Gal and cell senescence [3]: significantly reduce
- number of SA-β-Gal staining-positive cells [4]: significantly reduced
- number of SA-β-Gal staining-positive H9c2 cells [5]: reduce
- number of SA-β-Gal staining-positive iPSC-MSC cells [6]: reduce

Structure (SMILES): OC[C@@H]1[C@@H](O)[C@H](O)[C@@H](O)CN1CCc1ccc(F)cc1
- increase in the number of senescent cells (SA-β-Gal staining-positive cells) [1]: significantly inhibited
- production of senescent cells induced by H2O2 (number of SA-β-Gal staining-positive cells) [2]: significantly reduce
- expression of SA-β-Gal and cell senescence [3]: significantly reduce
- number of SA-β-Gal staining-positive cells [4]: significantly reduced
- number of SA-β-Gal staining-positive H9c2 cells [5]: reduce
- number of SA-β-Gal staining-positive iPSC-MSC cells [6]: reduce

Structure (SMILES): O=C(CCCC[C@@H]1CCSS1)N1C[C@H](O)[C@@H](O)[C@H](O)[C@H]1CO
- protective effects on senescence compared with NMN [1]: significantly better than that of NMN
- increase in the number of senescent cells (SA-β-Gal staining-positive cells) [1]: significantly inhibited
- production of senescent cells induced by H2O2 (number of SA-β-Gal staining-positive cells) [2]: significantly reduce
- expression of SA-β-Gal and cell senescence [3]: significantly reduce
- number of SA-β-Gal staining-positive cells [4]: significantly reduced
- number of SA-β-Gal staining-positive H9c2 cells [5]: reduce
- number of SA-β-Gal staining-positive iPSC-MSC cells [6]: reduce
